Only results without a clear call are listed here; the source files them as inconclusive. How the calls were made is not given here.
Target: Histone acetyltransferase RTT109 (Candida albicans (strain SC5314 / ATCC MYA-2876)) (UniProt Q5AAJ8)
Experiment: C. albicans Rtt109 HAT inhibition curves – biochemical, cherry-picked hits, plate reader, dose response (AID 588764);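 further: 0% = neutral control wells and -100% = no enzyme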
Settings: Rtt109/Vps75 HAT activity; at 19.5 µM (top of the series)

Protein sequences, listed by entry. Tags and fused reporters are not part of them.
UniProt Q5AAJ8, whole entry, looked up: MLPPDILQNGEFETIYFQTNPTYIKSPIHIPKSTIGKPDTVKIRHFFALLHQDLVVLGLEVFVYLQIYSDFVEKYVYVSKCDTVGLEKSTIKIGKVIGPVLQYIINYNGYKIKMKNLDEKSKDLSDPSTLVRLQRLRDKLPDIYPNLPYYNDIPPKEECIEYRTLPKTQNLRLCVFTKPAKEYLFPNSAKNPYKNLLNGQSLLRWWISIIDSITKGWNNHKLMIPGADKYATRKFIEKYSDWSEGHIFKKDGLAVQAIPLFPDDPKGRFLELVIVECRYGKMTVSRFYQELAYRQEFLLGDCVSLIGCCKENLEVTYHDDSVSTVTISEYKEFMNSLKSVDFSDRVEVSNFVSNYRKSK

Compound: CC1CCC(C(C)C)C(OP(=O)(Nc2ccccn2)c2ccccc2)C1 (stereo unspecified)
- activity change, negative = inhibition: inconclusive: -5.97%
